Values quoted from earlier work, collected in publication PMC12673578 (Molecular Pharmaceutics, 2025).

Test system: CES1 G143E variant
Conditions: literature value, cited from earlier work

For `COC(=O)[C@H](c1ccccc1Cl)N1CCc2sccc2C1` [clopidogrel], the “Greater platelet aggregation inhibition in G143E carriers relative to noncarriers” value (CES1 G143E allele carriers) is listed as 24%, the “Higher concentrations of the active metabolite in G143E carriers relative to noncarriers” value (CES1 G143E allele carriers) is listed as 50% and the “Lower AUC ratio of CCA to clopidogrel in G143E carriers” value (second cited study) is listed as 53%.
